Where two headings read alike, the source gives them in different places.

The data set is classed as in vivo, human. Particulars: secondary screen.

4-hydroxy-tamoxifen [OH-tamoxifen]: the “Association of season with OH-tamoxifen concentration, β” value by setting is: (fall compared to winter) −0.21; (summer compared to winter) −0.13. For the same substance, the “Association of weight with OH-tamoxifen concentration, β” value (greater weight) is −0.0038.

For the origin of these results see publication PMC5659294 (Pharmacogenetics and genomics, 2017).
